Experimental findings from the NIST ThermoML archive (doi:10.1021/je020196d) are described below.

Each structure is given as a SMILES string. Numbers after ± are expanded uncertainties.

The conditions of series [1]: 293.15 K; 101.33 kPa; Liquid.
Series [2] can be described thus: refractive index (Na D-line) (dimensionless). Particulars: 293.15 K; 101.33 kPa; Liquid; Standard Abbe refractometry.

What is called mass density is the mass of a sample divided by its volume. Broadly, the refractive index is a measure of how strongly the sample bends light. For the compound `OCCOCCOCCOCCO` [tetraethylene glycol], the mass density in series [1] is recorded as 1125.6 ± 5 kg/m3. In series [2], the refractive index came out at 1.4571 ± 0.0007.
